# Reference: patent publication EP4635949A1 (Jiangsu NHWA Pharmaceutical Co., Ltd, priority 2022, dated 2024)
# The chains behind the UniProt entries cited, without tags or fusion partners.
# UniProt O43614, whole entry: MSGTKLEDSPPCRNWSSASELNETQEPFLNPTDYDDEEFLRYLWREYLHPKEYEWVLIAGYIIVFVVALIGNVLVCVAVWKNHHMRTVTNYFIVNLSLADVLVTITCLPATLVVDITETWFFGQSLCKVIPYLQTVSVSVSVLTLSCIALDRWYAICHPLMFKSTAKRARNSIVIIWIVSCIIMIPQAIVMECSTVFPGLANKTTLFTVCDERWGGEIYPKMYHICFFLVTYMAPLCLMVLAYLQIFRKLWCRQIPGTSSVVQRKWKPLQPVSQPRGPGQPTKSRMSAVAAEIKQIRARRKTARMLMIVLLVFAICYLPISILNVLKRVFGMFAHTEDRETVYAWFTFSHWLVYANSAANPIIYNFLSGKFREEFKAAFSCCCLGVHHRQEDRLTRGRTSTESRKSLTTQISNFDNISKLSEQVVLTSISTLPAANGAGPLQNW
# UniProt O43613, whole entry: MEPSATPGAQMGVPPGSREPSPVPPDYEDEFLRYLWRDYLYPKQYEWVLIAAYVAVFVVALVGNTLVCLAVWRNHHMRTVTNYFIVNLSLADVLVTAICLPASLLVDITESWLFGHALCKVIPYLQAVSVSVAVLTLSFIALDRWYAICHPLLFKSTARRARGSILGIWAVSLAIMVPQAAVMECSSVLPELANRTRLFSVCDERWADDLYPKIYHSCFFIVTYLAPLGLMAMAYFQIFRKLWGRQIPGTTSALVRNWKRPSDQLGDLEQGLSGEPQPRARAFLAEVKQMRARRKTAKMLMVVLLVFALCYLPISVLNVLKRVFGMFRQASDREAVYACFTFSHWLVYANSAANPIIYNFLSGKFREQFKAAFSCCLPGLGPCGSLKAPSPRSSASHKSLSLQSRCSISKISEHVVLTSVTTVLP
# Marks after values point to notes of the source that are not given here.
# What was measured:
# SD rats = assay: Autonomous activity of rats; details: rat, in vivo
# OX2 receptor = biological target: T1, OX2 receptor (Homo sapiens, UniProt O43614); assay: Orexin target function test (Cisbio HTRF IP-one), CHO-K1-OX2 cells, antagonism of EC80 Orexin 2 receptor agonist; format: cell-based
# T1 construct: host or cells: CHO-K1
# OX1 receptor = biological target: T2, OX1 receptor (Homo sapiens, UniProt O43613); assay: Orexin target function test (Cisbio HTRF IP-one), CHO-K1-OX1 cells, antagonism of EC80 Orexin A; format: cell-based
# T2 construct: host or cells: CHO-K1
compound,measurement,setting,value
"Cc1cc(C)nc(N2CC3CN(C(=O)c4c(F)cccc4-n4nccn4)CC3C2)n1 (centres unmarked) [Seltorexant, reference compound]",Activity distance (mm),SD rats; 10 mg/kg,58753.65±13055.81 mm
same,Inhibition rate(%),SD rats; 10 mg/kg,17.29%
same,Activity distance (mm),SD rats; 30 mg/kg,54020.96±5166.53 mm
same,Inhibition rate(%),SD rats; 30 mg/kg,23.95* %
same,Activity distance (mm),SD rats; 50 mg/kg,31529.21±7233.98 mm
same,Inhibition rate(%),SD rats; 50 mg/kg,55.61 * %
same,IC50,OX2 receptor,26 nM
same,IC50,OX1 receptor,1100 nM
